DENV2 CPE = protects cells from dengue virus 2 cytopathic effect. DENV2-infected cells, cytopathic effect rescue, plate reader. CPE inhibition, % at 9.99 µM. hit rate 1.7% among 350,000. AID 651640; in the data active means CPE inhibition above about 20%, passing the limit was not always enough; tested in BHK-21 cells
Cneo AK release = causes C. neoformans cell lysis | adenylate kinase release luminescence, 4 h; normalised: neutral wells 0, clomiphene wells 100 | lysis activity, % at 15 µM | hit rate 0.2% among 360,000 | AID 651654;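 active means mean lysis activity across replicates of at least 80%, whatever share of replicates individually reach that level; inactive means mean lysis activity below 80%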
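Material: C. neoformans cells | Amount: Yeast cell density of 5 × 10^6 cells/mL | Medium: Fresh YPD growth medium | Dosing: Single dose | Times: Static 4 h at 37 °C with compound, 1 h detection | Detection: AK luminescence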
E-sel inducer = E-selectin induction on HUVECs | P16581 | HUVEC E-selectin immunofluorescence imaging; normalized: neutral wells 0, TNF-alpha wells 100 | activation, % at 7.58 µM | hit rate 0.37% among 260,000;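 active means mean E-selectin-positive cell signal at least 10% of the positive control, reached in at least 60% of replicates, without over 20% cell loss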
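Test system: HUVEC | Signal: Immunofluorescence imaging | Read-out: Percent E-selectin-positive cells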
UUG fidelity = yeast start codon fidelity modulation | S. cerevisiae UUG-firefly luciferase reporter, luminescence/redox ratio | activity score, % at 18.7 µM | 0.13% of 350,000 active | AID 602363;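 active means replicate mean at a twofold rise or more, about +100% in these data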;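 further: firefly luciferase made from a UUG start codon reports start codon fidelity; reporter light over untreated wells divided by growth signal over untreated wells; some hits fall short of that in this replicate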
Large screens that a line does not name were inactive; ! = a repeat was not active. Hits are enriched below; roughly 1.8% of the tested compounds scored in any of these assays.

COc1ccc(S(=O)(=O)N(C)C[C@@H]2OCc3cnnn3CCCC(=O)N([C@H](C)CO)C[C@H]2C)cc1	none
Cc1nc2ccccc2c(=O)n1-c1ccc(NS(=O)(=O)c2ccccc2)cc1	DENV2 CPE 68 (no result: Cneo AK release)
Cc1nc2ccccc2c(=O)n1-c1ccc(NS(=O)(=O)c2ccc(F)cc2)cc1	none (no result: Cneo AK release, UUG fidelity)
O=C1Nc2ccccc2SC1c1ccccc1 (centres undefined)	DENV2 CPE 25 (no result: E-sel inducer)
COCC(=O)N1CC2(C1)[C@@H](c1ccccc1)[C@@H](CO)N2C(=O)c1cccnc1	none (no result: Cneo AK release, UUG fidelity)
CCC(=O)N1CC2(C1)[C@@H](c1ccc(-c3ccc(F)cc3)cc1)[C@H](CO)N2C(=O)CC	DENV2 CPE 27 (no result: Cneo AK release, UUG fidelity)
O=C(CC1CC1)N1CC2(C1)[C@H](c1ccccc1)[C@@H](CO)N2C(=O)c1cccnc1	none (no result: Cneo AK release, UUG fidelity)
O=C(c1cccnc1)N1CC2(C1)[C@@H](c1ccccc1)[C@@H](CO)N2C(=O)CC1CC1	DENV2 CPE 30 (no result: Cneo AK release, UUG fidelity)
CCC(=O)N1CC2(C1)[C@@H](c1ccccc1)[C@H](CO)N2C(=O)c1cccnc1	DENV2 CPE 72 (no result: Cneo AK release, UUG fidelity)
C[C@H]1CN([C@@H](C)CO)C(=O)c2cc(NC(=O)Cc3cn(C)c4ccccc34)ccc2O[C@@H]1CN(C)C(=O)Nc1ccc(F)cc1	none
c1ccc(-c2ccccc2OCCOCCN2CCNCC2)cc1	E-sel inducer 39 (no result: Cneo AK release, UUG fidelity)
C[C@@H]1CN([C@H](C)CO)C(=O)c2cc(NS(C)(=O)=O)ccc2O[C@@H](C)CCCCO[C@H]1CN(C)S(=O)(=O)c1cccs1	none
CCCC(=O)Nc1ccc(-c2cn3cccnc3n2)cc1	none (no result: Cneo AK release, UUG fidelity)
CC(C)(C)CC(=O)Nc1ccc(-c2cn3cccnc3n2)cc1	E-sel inducer 34
C[C@@H]1CN([C@H](C)CO)C(=O)c2cc(/C=C/c3ccccc3)cnc2O[C@H]1CN(C)C(=O)Cc1cccnc1	none (no result: UUG fidelity)
COc1ccc(NC(=O)N(C)C[C@@H]2Oc3ccc(NS(=O)(=O)c4c(C)noc4C)cc3C(=O)N([C@@H](C)CO)C[C@@H]2C)cc1	DENV2 CPE 27 (no result: UUG fidelity)
Cc1noc(C)c1NC(=O)N(C)C[C@H]1Oc2ccc(NS(=O)(=O)c3c(C)noc3C)cc2C(=O)N([C@H](C)CO)C[C@@H]1C	DENV2 CPE 30!, E-sel inducer 31!
COc1ccc(NC(=O)N(C)C[C@H]2Oc3ccc(NS(=O)(=O)c4c(C)noc4C)cc3C(=O)N([C@H](C)CO)C[C@@H]2C)cc1	DENV2 CPE 22
COc1ccc(NC(=O)N(C)C[C@H]2Oc3ccc(NS(=O)(=O)c4c(C)noc4C)cc3C(=O)N([C@@H](C)CO)C[C@H]2C)cc1	none
Cc1noc(C)c1NC(=O)N(C)C[C@H]1Oc2ccc(NS(=O)(=O)c3cccs3)cc2C(=O)N([C@H](C)CO)C[C@H]1C	E-sel inducer 29
CC(C)NC(=O)N(C)C[C@@H]1OCCCC[C@@H](C)Oc2ccc(NS(C)(=O)=O)cc2C(=O)N([C@H](C)CO)C[C@H]1C	none
O=C(NCC[C@H]1CC[C@H](NS(=O)(=O)c2ccc(Cl)cc2)[C@H](CO)O1)c1ccccc1F	none
C[C@H](CO)N1C[C@H](C)[C@@H](CN(C)S(=O)(=O)c2cn(C)cn2)Oc2ccc(NC(=O)Cc3cn(C)c4ccccc34)cc2C1=O	none (no result: E-sel inducer)
COc1ccc(NC(=O)N(C)C[C@@H]2Oc3ccc(NS(=O)(=O)c4c(C)noc4C)cc3C(=O)N([C@H](C)CO)C[C@@H]2C)cc1	DENV2 CPE 90
O=c1c2ccccc2c(-c2n[nH]c(=S)o2)nn1Cc1ccccc1	none (no result: Cneo AK release, E-sel inducer, UUG fidelity)
OCc1ccc(-c2nn(Cc3ccccc3)c3ccccc23)o1	E-sel inducer 117
O=C(C1CCCCC1)N1CC2(C1)[C@@H](c1ccccc1)[C@@H](CO)N2Cc1ccccc1F	DENV2 CPE 32 (no result: Cneo AK release, UUG fidelity)
COc1ccccc1CN1[C@H](CO)[C@@H](c2ccccc2)C12CN(C(=O)c1ccccn1)C2	DENV2 CPE 89 (no result: Cneo AK release, UUG fidelity)
O=C(c1cccc(F)c1)N1CC2(C1)[C@@H](c1ccccc1)[C@@H](CO)N2C(=O)C1CCCC1	DENV2 CPE 78 (no result: Cneo AK release, UUG fidelity)
CN(C)CC(=O)N1CC2(C1)[C@H](c1ccccc1)[C@@H](CO)N2C(=O)C1CCCC1	none (no result: Cneo AK release, UUG fidelity)
O=C(c1cccc(F)c1)N1CC2(C1)[C@H](c1ccccc1)[C@H](CO)N2C(=O)C1CCCCC1	none (no result: Cneo AK release, UUG fidelity)
CN(C)CC(=O)N1[C@H](CO)[C@@H](c2ccccc2)C12CN(C(=O)C1CCCC1)C2	DENV2 CPE 51 (no result: Cneo AK release, UUG fidelity)
C[C@H](CO)N1C[C@H](C)[C@@H](CN(C)CC2CCCCC2)Oc2ccc(NC(=O)Nc3ccccc3)cc2CC1=O	none
COc1ccccc1-c1ccc2c(c1)O[C@H](CN(C)S(=O)(=O)c1ccc(F)cc1)[C@H](C)CN([C@@H](C)CO)S2(=O)=O	none (no result: UUG fidelity)

Assay outcomes from PubChem.
